Bioassay records (PubChem)
Hits are enriched below; roughly 3.6% of the tested compounds scored in any of these assays.
GCN5L2 inh: inhibitors of human GCN5L2 histone acetyltransferase. Q92830. GCN5L2 HAT assay, ThioGlo1 CoA-SH fluorescence. Potency, µM (series often up to 58.9 µM), inactives show top-dose activity change, negative = inhibition, usual class: inhibitors. 390,000 compounds, 0.21% hits; further: potency means the concentration at half of the fitted maximal effect; on the % scale 0 is the no-effect control and ±100 the full control effect
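ThioGlo1-coupled HAT assay: 20nM GCN5L2, 70uM acetyl-CoA, 75uM H3(1-25) peptide, pH 7.5. Fluorescence read at 340/540nm at start and after 20 min at room temperature.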
Rango-impB inh: prevents formation of the Rango-importin beta complex | Q14974 | 340,000 compounds, 0.031% hits | Rango CFP/YFP FRET sensor + importin beta, 45 min | AID 540263 | Potency, µM (top dose mostly 92.2 µM), inactives show at the highest dose inhibition of complex formation; calls by dose curve;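 further: potency means the concentration at half of the fitted maximal effect; 0% = DMSO wells and 100% = buffer wells lacking importin beta; nearly all actives have a fitted effect of over 15% in size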
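FRET biosensor (snurportin 1 IBB flanked by EYFP and cerulean), 50 nM, with compound 5 min, then 0.125 microM importin beta in PBS, 1 mM DTT, 0.02% Tween-20, 0.1% BSA. CFP/YFP ratio read after 45 min at room temperature; pre-read flags interference.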
PI5P4Ka inh: inhibitors of human PI5P4K alpha; P48426; PI5P4Kalpha enzyme, ADP-Glo luminescence, 60 min; stronger effect = lower value; max response, %; 330,000 compounds, 1.2% hits; AID 652105; active means max response of -50% or lower; inconclusive means between -30% and -50%; inactive means -30% or higher; further: value at the top dose of about 77 µM; on the % scale 0 is the no-effect control and ±100 the full control effect
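ADP-Glo luminescence end-point after a 60 min room-temperature kinase reaction. PI5P4Kalpha and substrate in HEPES pH 7.4 buffer with EGTA, 0.1% CHAPS and 5% DMSO; ATP at 5 microM final.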
VDR inhibitor: inhibitors of human vitamin D receptor. VDR-SRC2-3 peptide fluorescence polarization, 2 h. Potency, µM, for inactives: max response, negative = inhibition, actives largely listed as inhibitors. 400,000 compounds, 0.93% hits. AID 504847; further: potency means the concentration at half of the fitted maximal effect; on the % scale 0 is the no-effect control and ±100 the full control effect
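Reagent solutions, kept cold and dark, are dispensed first; compounds are then pinned in at 23 nl, plates briefly spun, and incubated 2 h at ambient temperature. Inhibition of VDR–SRC2-3 peptide binding is read by fluorescence polarization.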
Rango dissoc inh: inhibitors of RanGTP-induced Rango-importin beta complex dissociation. O95149+P62826. Biochemical FRET Rango-importin beta, RanGTP-induced dissociation. Potency, µM (titrated, usually from 46.1 µM), for inactives: at the top dose activity change, negative = inhibition. 340,000 compounds, 0.071% hits. AID 540253; calls by dose curve; further: potency means the concentration at half of the fitted maximal effect; % of control where 0% means no effect; nearly all actives have a fitted effect of over 45% in size
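FRET read at 45 min, room temperature: inhibitors block the CFP/YFP signal rise when RanGTP (0.6 uM Ran, 2 mM GTP, 0.2 uM RCC1) frees Rango (0.1 uM) from importin beta (0.25 uM). Pre-read after 5 min compound exposure flags interference.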
PLK1 PBD block: inhibitors of human PLK1 polo-box domain binding. Plk1 PBD binding of FITC phosphopeptide, fluorescence polarization. Potency, µM, without a hit: max response, negative = inhibition, actives largely listed as inhibitors. 360,000 compounds, 2.8% hits; further: potency means the concentration at half of the fitted maximal effect; series mostly up to about 57 µM; on the % scale 0 is the no-effect control and ±100 the full control effect; nearly all actives have a fitted effect of over 65% in size
* hit, by the source's call; ? = inconclusive; nt = not tested or not shown. Unless noted, the call rests on the fitted dose curve; in most records, active means well fitted curve in the direction sought with a large enough effect; inconclusive means small, poorly fitted or top-dose-only effect, or another doubt; inactive means no such curve, though single readings can be large; an effect the other way counts as inactive or inconclusive.

# | SMILES | PLK1 PBD block | PI5P4Ka inh | GCN5L2 inh | Rango dissoc inh | VDR inhibitor | Rango-impB inh
1 | COc1cccc(-n2nnnc2SCC(=O)Nc2ccc(OC)cc2OC)c1 | 5% | -6 | 1% | 9% | 2% | 0%
2 | COc1cccc(-n2nnnc2SCC(=O)Nc2ccccc2OC)c1 | -1% | 0 | -2% | 20% | 3% | 2%
3 | NC(=O)c1ccc(-n2nnnc2SCC(=O)Nc2ccc(N3CCOCC3)c(Cl)c2)cc1 | 24µM* | -29 | -2% | 1% | 5% | 0%
4 | O=C(Oc1ccccc1)C1O[C@@H]1c1ccccc1 (stereo partly drawn) | nt | nt | nt | nt | -1% | nt
5 | CC1=C(C)/C(=N\OS(=O)(=O)c2ccccc2)C=CC1=O | ? | 0 | ? | 2% | 35µM* | 0%
6 | Cc1ccc(S(=O)(=O)O/N=C2\CCCc3ccccc32)cc1 | 1% | 1 | -4% | -6% | 4% | -2%
7 | O=C(CSc1ncn[nH]1)c1ccc2c(c1)OCCO2 | ? | nt | -11% | -1% | ? | 3%
8 | CC(C)c1ccc(C(=O)CSc2ncn[nH]2)cc1 | 30µM* | nt | ? | 10% | 79µM* | -7%
9 | CC(C)c1ccc(N2C(=O)CC(Sc3nc4ccccc4o3)C2=O)cc1 (stereo not drawn) | -19% | nt | -9% | 0% | -1% | 1%
10 | CC(C)c1ccc(N2C(=O)CC(Sc3ncn[nH]3)C2=O)cc1 (stereo not drawn) | 27µM* | -24 | 0% | 1% | 19% | 0%
11 | O=c1c2ccccc2n2c(-c3ccc(Cl)cc3)nnc2n1CCc1ccccc1 | nt | nt | 1% | nt | 12% | nt
12 | Cc1ccc(CNC(=O)c2cc(-c3ccc(C)cc3)nc3n[nH]c(-c4cccc([N+](=O)[O-])c4)c23)cc1 | nt | nt | -10% | nt | 2% | nt
13 | Cc1cc2c(s1)c1cnn(CC(=O)N3CCOCC3)c(=O)c1n2C | nt | nt | nt | nt | -18% | nt
14 | O=C(CCC(=O)N/N=C/c1cc(Cl)cc(Cl)c1O)NCc1ccccc1 | 9.5µM* | -16 | -1% | ? | ? | ?
15 | CNc1nc(N/N=C/c2cc3c(cc2[N+](=O)[O-])OCO3)nc(Nc2ccccc2)n1 | 1% | -68* | -4% | 7% | 4% | 65µM*
16 | Cc1ccc(S(=O)(=O)N(C)C)cc1NC(=O)c1cc(-c2ccco2)nc2ccccc12 | -14% | -56* | -26% | 1% | -20% | 1%
17 | COc1ccc(NC(=S)Nc2cccc3cnccc23)cc1 | ? | 4 | 0% | 1% | -16% | -2%
18 | COc1cc(/C=N/NC(=O)c2cc(-c3ccco3)nc3ccccc23)cc(OC)c1O | -26% | ? | -13% | ? | -1% | -8%
19 | CN(C)S(=O)(=O)c1cccc(NC(=S)Nc2ccc3cn[nH]c3c2)c1 | 21µM* | -8 | -2% | 5% | -6% | -5%
20 | O=C(N/N=C/c1cccc(F)c1)c1cc(-c2ccco2)nc2ccccc12 | 11µM* | -88* | ? | -8% | -6% | -3%
21 | COc1ccccc1NC(=S)Nc1cccc2cnccc12 | 30µM* | -18 | -2% | 9% | ? | 1%
22 | CSc1nn(Cc2ccccc2C)c(NC(C)=O)c1S(=O)(=O)c1ccc(C)cc1 | nt | nt | -3% | nt | 12% | nt
23 | S=C(Nc1ccc2cn[nH]c2c1)Nc1ccc(Cl)cc1Cl | 15µM* | ? | 5% | -6% | ? | 0%
24 | CN(C)S(=O)(=O)c1cccc(NC(=S)Nc2cccc3cnccc23)c1 | 17µM* | ? | -8% | -22% | ? | ?
25 | Cc1ccc(S(=O)(=O)N(C)C)cc1NC(=S)Nc1cccc2ccccc12 | 15µM* | 2 | -1% | -3% | -28% | -1%
26 | CCCCOc1ccc(CNC(=O)CCCN2C(=O)CSc3c2c(C)nn3-c2ccccc2)cc1 | nt | nt | -4% | nt | 1% | nt
27 | Cc1ccc(Cn2c(C(=O)O)c(CNCc3ccc(OC(C)C)cc3)c3ccc(C)cc32)cc1 | nt | nt | -10% | nt | -1% | nt
28 | Cc1ccc(Nc2nnns2)cc1 | 24µM* | ? | 24% | 5% | 79µM* | 0%
29 | Cc1ccc(Nc2nc3ccccc3s2)cc1 | -6% | 0 | -3% | 16% | -6% | 3%

By substructure: the entries above containing a Cl atom (four)
# | SMILES | PLK1 PBD block | PI5P4Ka inh | GCN5L2 inh | Rango dissoc inh | VDR inhibitor | Rango-impB inh
3 | NC(=O)c1ccc(-n2nnnc2SCC(=O)Nc2ccc(N3CCOCC3)c(Cl)c2)cc1 | 24µM* | -29 | -2% | 1% | 5% | 0%
11 | O=c1c2ccccc2n2c(-c3ccc(Cl)cc3)nnc2n1CCc1ccccc1 | nt | nt | 1% | nt | 12% | nt
14 | O=C(CCC(=O)N/N=C/c1cc(Cl)cc(Cl)c1O)NCc1ccccc1 | 9.5µM* | -16 | -1% | ? | ? | ?
23 | S=C(Nc1ccc2cn[nH]c2c1)Nc1ccc(Cl)cc1Cl | 15µM* | ? | 5% | -6% | ? | 0%
